# Measured values: PubChem BioAssay AID833 (The Scripps Research Institute Molecular Screening Center, 2007)
# Protein sequences, listed by entry. Tags and fused reporters are not part of them.
# UniProt O08726, whole entry: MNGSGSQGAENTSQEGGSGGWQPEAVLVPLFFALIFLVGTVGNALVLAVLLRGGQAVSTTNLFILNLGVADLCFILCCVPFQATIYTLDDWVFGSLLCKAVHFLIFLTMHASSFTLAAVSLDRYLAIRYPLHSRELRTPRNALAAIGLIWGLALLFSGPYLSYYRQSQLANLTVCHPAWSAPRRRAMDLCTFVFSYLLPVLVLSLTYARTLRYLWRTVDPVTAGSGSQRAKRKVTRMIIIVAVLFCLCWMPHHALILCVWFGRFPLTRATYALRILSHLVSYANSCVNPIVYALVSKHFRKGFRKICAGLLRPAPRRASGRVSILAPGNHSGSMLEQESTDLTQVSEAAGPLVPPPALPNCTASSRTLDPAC
# Only a part is listed here, and it is no random draw. The source made the active and inactive calls. Rule as the data show it: active = activation above about 15%; inactive = the rest.
# Target: Galanin receptor type 2 (Rattus norvegicus) (UniProt O08726)
# Assay: agonists of rat galanin receptor 2 (GALR2) (AID 833)
# Conditions: cell-based GALR2 agonist screen; at 10 µM; active compounds read high
row,SMILES,activation
1,O=[N+]([O-])C1([N+](=O)[O-])COCOC1,inactive: -8.45%
